From ChEMBL document CHEMBL3751806, “Synthesis, experimental evaluation and molecular modelling of hydroxamate derivatives as zinc metalloproteinase inhibitors” (Eur J Med Chem, 2016)
pIC50: −log10 of the molar value.

Protein sequences, listed by entry. Tags and fused reporters are not part of them. Lines headed by an entry give the natural chain unless they say otherwise; changes in a name come on top.
UniProt P14756: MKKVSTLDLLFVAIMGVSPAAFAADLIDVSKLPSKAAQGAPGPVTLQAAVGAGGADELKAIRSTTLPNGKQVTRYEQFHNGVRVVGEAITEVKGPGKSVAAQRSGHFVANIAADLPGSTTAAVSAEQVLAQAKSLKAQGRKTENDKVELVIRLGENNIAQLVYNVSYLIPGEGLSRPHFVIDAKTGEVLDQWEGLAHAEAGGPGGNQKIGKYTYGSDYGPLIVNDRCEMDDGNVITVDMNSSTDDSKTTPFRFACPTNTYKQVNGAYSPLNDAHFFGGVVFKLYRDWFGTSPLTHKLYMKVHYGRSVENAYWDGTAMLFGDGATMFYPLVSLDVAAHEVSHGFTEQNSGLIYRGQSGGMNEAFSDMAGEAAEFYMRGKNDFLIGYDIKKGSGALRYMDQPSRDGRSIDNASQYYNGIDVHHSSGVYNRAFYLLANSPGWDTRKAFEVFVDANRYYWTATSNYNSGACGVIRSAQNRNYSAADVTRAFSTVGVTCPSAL

Experiments:
Elastase = Elastase (Pseudomonas aeruginosa (strain ATCC 15692 / PAO1 / 1C / PRS 101 / LMG12228), UniProt P14756); experiment: Inhibition of Pseudomonas aeruginosa pseudolysin pretreated with compound for 1 hr followed by the addition of 1.73 uM bradykinin like substrate by spectrofluorometry
Thermolysin [1] = biological target: T1, Thermolysin (Bacillus thermoproteolyticus, UniProt P00800); experiment: Inhibition of Bacillus thermoproteolyticus thermolysin pretreated with compound for 15 mins followed by the addition of 75 uM Abz-Ala-Gly-leu-Ala-p-nitrobenzalamide as substrate by spectrofluorometry
T1 sequence (P00800 whole entry): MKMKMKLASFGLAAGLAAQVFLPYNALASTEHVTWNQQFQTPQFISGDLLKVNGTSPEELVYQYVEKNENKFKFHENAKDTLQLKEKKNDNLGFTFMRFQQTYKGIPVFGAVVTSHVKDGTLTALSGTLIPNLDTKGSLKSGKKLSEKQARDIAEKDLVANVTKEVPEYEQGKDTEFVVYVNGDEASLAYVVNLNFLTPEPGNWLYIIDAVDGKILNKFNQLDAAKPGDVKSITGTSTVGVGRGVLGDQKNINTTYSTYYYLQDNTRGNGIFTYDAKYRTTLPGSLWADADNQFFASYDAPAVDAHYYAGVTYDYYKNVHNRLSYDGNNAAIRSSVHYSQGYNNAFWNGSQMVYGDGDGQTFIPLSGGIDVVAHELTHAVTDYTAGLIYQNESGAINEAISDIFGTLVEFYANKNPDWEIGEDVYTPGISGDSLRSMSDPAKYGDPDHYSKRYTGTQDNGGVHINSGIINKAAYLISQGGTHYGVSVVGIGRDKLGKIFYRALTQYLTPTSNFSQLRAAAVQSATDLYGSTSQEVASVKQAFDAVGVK

Thermolysin [2] = biological target: T1, Thermolysin; experiment: Inhibition of Bacillus thermoproteolyticus thermolysin pretreated with compound for 1 hr followed by the addition of 3.33 uM bradykinin like substrate by spectrofluorometry assay
[3] = biological target: Thermolysin (Bacillus thermoproteolyticus) (UniProt P00800); experiment: Inhibition of Bacillus thermoproteolyticus thermolysin pretreated with compound for 15 mins followed by the addition of Abz-Ala-Gly-leu-Ala-p-nitrobenzalamide as substrate by spectrofluorometry

Structure (SMILES): CC(C)CN([C@@H](C(=O)NO)C(C)C)S(=O)(=O)c1ccc(-c2ccccc2)cc1
- pIC50 (Elastase): 3.65
- pIC50 (Thermolysin [1]): 3.61
- pIC50 (Thermolysin [2]): 3.22
- pIC50 [3]: 4.54

Structure (SMILES): COc1ccc(S(=O)(=O)N(CC(=O)NO)OC23CC4CC(CC(C4)C2)C3)cc1
- pIC50 (Elastase): 3.85
- pIC50 (Thermolysin [1]): 4.05
- pIC50 (Thermolysin [2]): 3.36
- pIC50 [3]: 4.29

Structure (SMILES): CC(C)ON([C@@H](C(=O)NO)C(C)C)S(=O)(=O)c1ccc(-c2ccccc2)cc1
- pIC50 (Elastase): 3.10
- pIC50 (Thermolysin [1]): 3.38
- pIC50 (Thermolysin [2]): 3.10
- pIC50 [3]: 4.24
